Source: patent US20220144847A1, “HETEROCYCLIC COMPOUND, PHARMACEUTICAL COMPOSITION COMPRISING SAME, PREPARATION METHOD THEREFOR, AND USE THEREOF” (Sichuan Kelun-Biotech Biopharmaceutical Co., Ltd., priority 2019, published 2022)

Chains of the proteins cited; added tags and fusions are not shown. Residues count along the entry.
UniProt P07949, 29-1114 V804M: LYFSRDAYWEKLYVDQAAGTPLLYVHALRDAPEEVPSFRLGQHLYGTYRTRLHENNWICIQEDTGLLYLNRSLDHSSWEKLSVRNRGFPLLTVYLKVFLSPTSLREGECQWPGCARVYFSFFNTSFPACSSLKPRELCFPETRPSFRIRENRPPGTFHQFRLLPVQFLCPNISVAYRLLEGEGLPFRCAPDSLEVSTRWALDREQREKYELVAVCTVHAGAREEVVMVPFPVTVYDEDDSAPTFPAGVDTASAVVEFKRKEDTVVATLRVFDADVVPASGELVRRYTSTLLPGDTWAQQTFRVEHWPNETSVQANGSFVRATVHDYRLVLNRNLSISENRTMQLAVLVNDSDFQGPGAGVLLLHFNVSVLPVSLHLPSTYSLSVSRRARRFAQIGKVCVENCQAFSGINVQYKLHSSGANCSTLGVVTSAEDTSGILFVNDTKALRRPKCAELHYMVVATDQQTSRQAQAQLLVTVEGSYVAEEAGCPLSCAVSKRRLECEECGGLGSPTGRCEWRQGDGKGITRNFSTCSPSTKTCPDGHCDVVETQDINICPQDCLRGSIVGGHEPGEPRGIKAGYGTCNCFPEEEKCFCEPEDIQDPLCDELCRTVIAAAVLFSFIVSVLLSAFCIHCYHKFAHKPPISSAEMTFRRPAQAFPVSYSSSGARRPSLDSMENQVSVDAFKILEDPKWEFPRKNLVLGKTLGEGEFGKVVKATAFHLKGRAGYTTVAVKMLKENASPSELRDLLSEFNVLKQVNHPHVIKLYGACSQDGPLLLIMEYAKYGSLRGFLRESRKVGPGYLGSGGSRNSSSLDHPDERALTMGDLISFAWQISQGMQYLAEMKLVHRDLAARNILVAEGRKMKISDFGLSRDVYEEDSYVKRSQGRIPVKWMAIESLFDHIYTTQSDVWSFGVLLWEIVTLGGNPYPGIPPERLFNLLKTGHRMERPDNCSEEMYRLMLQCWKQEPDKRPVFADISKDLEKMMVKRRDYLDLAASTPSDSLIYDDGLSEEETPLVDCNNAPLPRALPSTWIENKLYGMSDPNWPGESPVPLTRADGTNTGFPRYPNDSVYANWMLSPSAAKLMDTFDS
UniProt P35968, 20-1356, species assumed: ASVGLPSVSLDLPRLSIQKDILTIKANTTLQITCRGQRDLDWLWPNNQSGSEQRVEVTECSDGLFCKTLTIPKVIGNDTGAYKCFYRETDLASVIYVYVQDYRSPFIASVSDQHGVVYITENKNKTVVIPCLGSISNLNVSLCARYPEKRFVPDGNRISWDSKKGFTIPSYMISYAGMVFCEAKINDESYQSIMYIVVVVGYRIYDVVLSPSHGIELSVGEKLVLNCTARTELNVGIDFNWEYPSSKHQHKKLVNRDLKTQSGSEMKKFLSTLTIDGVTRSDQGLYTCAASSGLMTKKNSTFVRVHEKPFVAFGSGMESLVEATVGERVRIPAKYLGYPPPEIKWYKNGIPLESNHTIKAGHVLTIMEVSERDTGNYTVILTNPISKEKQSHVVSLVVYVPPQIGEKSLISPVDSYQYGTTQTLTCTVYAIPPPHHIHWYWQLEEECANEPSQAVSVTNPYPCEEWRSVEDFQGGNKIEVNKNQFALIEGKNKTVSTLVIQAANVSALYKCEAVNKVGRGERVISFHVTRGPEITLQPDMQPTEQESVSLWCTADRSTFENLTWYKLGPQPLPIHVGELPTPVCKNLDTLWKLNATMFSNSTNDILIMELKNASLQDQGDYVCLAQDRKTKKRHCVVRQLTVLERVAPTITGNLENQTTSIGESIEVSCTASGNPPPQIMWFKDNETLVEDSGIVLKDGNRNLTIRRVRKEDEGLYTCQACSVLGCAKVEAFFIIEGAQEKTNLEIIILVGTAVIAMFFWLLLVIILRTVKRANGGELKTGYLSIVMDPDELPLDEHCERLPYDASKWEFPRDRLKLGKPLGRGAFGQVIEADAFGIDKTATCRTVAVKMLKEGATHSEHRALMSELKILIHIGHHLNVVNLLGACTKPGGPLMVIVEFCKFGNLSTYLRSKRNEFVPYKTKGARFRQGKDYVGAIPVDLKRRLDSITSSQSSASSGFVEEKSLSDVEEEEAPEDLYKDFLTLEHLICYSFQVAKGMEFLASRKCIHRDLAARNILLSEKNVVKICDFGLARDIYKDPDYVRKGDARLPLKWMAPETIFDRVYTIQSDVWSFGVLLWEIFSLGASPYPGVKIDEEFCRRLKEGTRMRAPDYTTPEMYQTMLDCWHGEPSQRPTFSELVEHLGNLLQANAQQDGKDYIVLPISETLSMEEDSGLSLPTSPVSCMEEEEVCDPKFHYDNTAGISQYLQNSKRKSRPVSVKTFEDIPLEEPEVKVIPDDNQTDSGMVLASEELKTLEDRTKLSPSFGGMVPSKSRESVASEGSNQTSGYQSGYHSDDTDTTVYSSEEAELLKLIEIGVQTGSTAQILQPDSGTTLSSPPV

Assays:
RET-V804M = RET-V804M (Homo sapiens, UniProt P07949, V804M); assay: RET inhibition experiment (HTRF KinEASE-TK kit), mutant RET-V804M; type: biochemical; conditions: 10 nM (Table 2)
Description: Experimental method: According to the instructions of the HTRF KinEASE-TK kit (Cisbio), the compounds of the present disclosure were tested for their inhibitory effects on the activity of wild-type RET enzyme, mutant RET enzyme (RET-V804M, RET-V804L, and RET-M918T) and fusion-type RET enzyme (RET-CCDCl6). After pre-incubation of different RET enzymes and different concentrations of the test compounds at room temperature for 30 min, a substrate and adenosine triphosphate (ATP) were added to initiate the reaction. After incubation at room temperature for 40 min, TK antibody-cryptate and streptavidin-XL665 were added, and the test was performed after incubation at room temperature for 45 min. With the solvent group (DMSO) as the negative control and the buffer group (without RET enzyme) as the blank control, the relative inhibitory activity percentages (i.e., inhibition rates) of different concentrations of the compounds were computed as per the following formula:
(§1) Relative inhibitory activity percentage=1−(compound group of different concentrations−blank control)/(negative control−blank control)*100%
The relative inhibitory activity percentages of different concentrations of the compounds were plotted with respect to the compound concentrations, and the curve was fitted according to a four-parameter model to compute the IC50 value as per the following formula: […]

VEGFR2 = VEGFR2 (Homo sapiens, UniProt P35968); assay: VEGFR2 inhibition experiment (HTRF KinEASE-TK kit); type: biochemical; conditions: 100 nM
Description: Experimental method: According to the instructions of the HTRF KinEASE-TK kit (Cisbio), the compounds of the present disclosure were tested for their inhibitory effects on the VEGFR2 enzyme activity. After pre-incubation of the VEGFR2 enzyme and different concentrations of test compounds at room temperature for 30 min, a substrate and adenosine triphosphate (ATP) were added to initiate the reaction. After incubation at room temperature for 40 min, TK antibody-cryptate and streptavidin-XL665 were added, and the test was performed after incubation at room temperature for 45 min. With the solvent group (DMSO) as the negative control and the buffer group (without VEGFR2 enzyme) as the blank control, the relative inhibitory activity percentages (i.e., inhibition rates) of different concentrations of the compounds were computed as per the following formula:
as §1
The relative inhibitory activity percentages of different concentrations of the compounds were plotted with respect to the compound concentrations, and the curve was fitted according to a four-parameter model to compute the IC50 value as per the following formula:
y=min+(max−min)/(1+(x/IC50)^(−Hillslope)) […]

Cc1cc(Nc2cc(C)[nH]n2)nc(-c2ccc(N3CC4CC(C3)N4Cc3ccc(-c4ccccn4)nc3)nc2)n1 [Compound 130]
Inhibition rate on RET-V804M (RET-V804M): 44% | Inhibition rate on VEGFR2 (VEGFR2): 63%
